Here are results for one compound from the SangsterLogP compilation.

In turn, `CC[C@H]1OC(=O)[C@H](C)[C@@H](O[C@H]2C[C@@](C)(OC)[C@@H](O)[C@H](C)O2)[C@H](C)[C@@H](O[C@@H]2O[C@H](C)C[C@H](N(C)C)[C@H]2O)[C@](C)(OC)C[C@@H](C)C(=O)[C@H](C)[C@@H](O)[C@]1(C)O` came in with a log partition coefficient (logP) of 3.16.
